Test results: patent US9682953B2, “Amide compounds, compositions and applications thereof” (Advinus Therapeutics Limited, priority 2011, dated 2017)

Protein sequences, listed by entry. Tags and fused reporters are not part of them. Residues count along the entry.
UniProt P97612, 30-579: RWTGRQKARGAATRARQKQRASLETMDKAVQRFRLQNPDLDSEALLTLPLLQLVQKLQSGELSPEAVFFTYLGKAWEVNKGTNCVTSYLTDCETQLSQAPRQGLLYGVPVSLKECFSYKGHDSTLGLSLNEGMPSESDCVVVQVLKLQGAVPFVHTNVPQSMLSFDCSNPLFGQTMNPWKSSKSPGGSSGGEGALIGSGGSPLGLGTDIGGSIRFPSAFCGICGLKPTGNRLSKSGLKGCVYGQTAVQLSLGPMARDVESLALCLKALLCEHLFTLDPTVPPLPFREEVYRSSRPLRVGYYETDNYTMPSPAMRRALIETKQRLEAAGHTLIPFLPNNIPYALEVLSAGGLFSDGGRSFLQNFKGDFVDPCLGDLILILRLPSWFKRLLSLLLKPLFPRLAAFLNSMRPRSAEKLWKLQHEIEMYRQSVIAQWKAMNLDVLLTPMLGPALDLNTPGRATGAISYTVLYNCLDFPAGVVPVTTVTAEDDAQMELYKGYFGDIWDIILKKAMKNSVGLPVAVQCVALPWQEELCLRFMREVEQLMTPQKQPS

Target: rat Fatty Acid Amide Hydrolase (FAAH) (Rattus norvegicus (Rat), UniProt P97612)
Assay: FAAH in vitro fluorescence assay (AAMCA hydrolysis), rat enzyme
Assay type: biochemical
Settings: read-out: rFAAH IC50
Method: Material and Reagents: All reagents were purchased from Sigma-Aldrich unless specified. […] Chaperone protein groEL-groES in pGRO7 plasmid (Takara Bio Inc, Japan) was co-expressed with Fatty Acid Amide Hydrolase (FAAH) to improve solubility of the protein expressed in E coli. […]
The assay was carried out in 200 μL volume in a 96-well black polystyrene plate (Greiner Bio-one, Germany). […] The reaction was incubated with 2 μL of varying concentrations of inhibitor in DMSO (final concentration of DMSO 1%) with shaking for 1 min and monitored for increase in fluorescence in kinetic mode for 50 min. […] Data was analyzed using GraphPad Prism 5 (GraphPad Software Inc., San Diego, Calif.). The activity of the compounds for rat Fatty Acid Amide Hydrolase (FAAH) was evaluated as described above with rat Fatty Acid Amide Hydrolase (FAAH) protein and 10 μM AAMCA substrate.

Cc1nc(C(=O)NC2CCC(=Cc3cccc(Oc4ccc(C(F)(F)F)cc4)c3)CC2)sc1-c1cccnc1 (stereo not shown) [Example 2.B-1, 4-Methyl-5-(3-pyridyl)-N-[4-[[3-[4-(trifluoromethyl)phenoxy]phenyl]methylene]cyclohexyl]thiazole-2-carboxamide]
IC50: 237 nM
